Only a part is listed here, and it is no random draw. Active and inactive are the calls of the source.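 Rule for the calls: active = inhibition above the mean of all tested compounds plus 3 SD, set per campaign (cut at about 25% in these data); inactive = the rest.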
Target: Tyrosyl-DNA phosphodiesterase 2 (Homo sapiens) (UniProt O95551)
Test: human TDP2 enzyme inhibitors, primary screen, biochemical, epi absorbance, recombinant enzyme (AID 720702);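 note: 0% = DMSO with enzyme and 100% = buffer with substrate but no TDP2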
Settings: recombinant TDP2, T5PNP hydrolysis, p-nitrophenol absorbance 415 nm; at 12.8 µM; active compounds read high
In short: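 System – recombinant human TDP2 · Quantity – TDP2 enzyme at 120 nM final · Doses – single concentration, 12.8 µM nominal, with 1% DMSO · Incubation – 2 h at 37 °C · Measured by – epi absorbance of p-nitrophenol freed from T5PNP by hydrolysis · Read-out – % inhibition relative to enzyme-containing and enzyme-free wells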

Protein sequences, listed by entry. Tags and fused reporters are not part of them. Lines headed by an entry give the natural chain unless they say otherwise; changes in a name come on top.
UniProt O95551: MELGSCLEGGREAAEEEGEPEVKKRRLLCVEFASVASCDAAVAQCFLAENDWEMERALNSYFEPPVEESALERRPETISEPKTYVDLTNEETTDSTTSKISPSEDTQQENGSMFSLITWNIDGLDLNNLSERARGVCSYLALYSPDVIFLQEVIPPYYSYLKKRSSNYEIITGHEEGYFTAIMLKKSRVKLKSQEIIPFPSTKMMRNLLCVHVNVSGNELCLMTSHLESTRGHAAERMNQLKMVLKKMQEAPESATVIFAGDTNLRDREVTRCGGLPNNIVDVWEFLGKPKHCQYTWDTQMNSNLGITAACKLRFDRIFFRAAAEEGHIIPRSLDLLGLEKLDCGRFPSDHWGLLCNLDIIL

SMILES	inhibition
O=P1(Nc2nc3ccc(Cl)cc3s2)COc2ccccc2O1 (stereo unspecified)	inactive: -1.82%
CCOc1ccc(C2=NCC(CBr)S2)cc1 (stereo unspecified)	inactive: -0.04%
CCc1cc(O)c([N+](=O)[O-])c(C)c1[N+](=O)[O-]	inactive: -9.66%
CC(C)(C)C(=O)NC(Sc1ccccc1)C(Cl)(Cl)Cl (stereo unspecified)	inactive: 1.58%
CC(=O)c1ccc(N2CC2c2ccncc2)cc1 (stereo unspecified)	active: 24.8%
N#C/C(=C\c1ccc(N(CCBr)CCBr)cc1)C(N)=O	inactive: -3.86%
COC(=O)C1(C)COP(=O)(NCc2ccccc2)OC1 (stereo unspecified)	inactive: -0.79%
Cc1ccccc1CN(C)C(=O)COC(=O)C(O)(c1ccccc1)c1ccccc1	inactive: -3.38%
C[C@H]1OP(=O)(Oc2ccccc2)C[C@@H]2O[C@@H]21 (stereo partly specified)	inactive: 0.49%
C[C@@H]1C=CCP(=O)(Oc2ccccc2)O1 (stereo partly specified)	inactive: -10.1%
CC(=O)Nc1ccc([As](=O)(O)O)c(O)c1	inactive: 3.23%
CC(=O)Nc1ccc(Oc2c([N+](=O)[O-])cc([N+](=O)[O-])cc2[N+](=O)[O-])cc1	inactive: -5.56%
CCNC(=S)/N=C(\N)N[N+](=O)[O-]	inactive: 7.15%
O=C(NC1CCS(=O)(=O)C1)NP(=S)(Oc1ccccc1)Oc1ccccc1 (stereo unspecified)	inactive: -0.06%
c1ccc(-c2nn[nH]n2)c(-c2nn[nH]n2)c1	inactive: 8.41%
Cc1ccc(NP(=O)(Oc2cccc(C)c2)Oc2cccc(C)c2)nc1	inactive: 8.65%
O=P1(N(CCCl)CCCl)OCCC2CCCCN21 (stereo unspecified)	inactive: 2.04%
COC(=O)c1cc2c(s1)N=C(c1ccccc1)N(C)P2(=O)N1CCOCC1 (stereo unspecified)	inactive: -3.36%
Cc1ccc(OP(=O)(Nc2ccccn2)Oc2ccc(C)cc2)cc1	inactive: -12.3%
CC(=O)NC(SC(=S)N(CC(C)C)CC(C)C)C(Cl)(Cl)Cl (stereo unspecified)	inactive: 8.13%
O=C(OC1CN2CCC1CC2)c1ccccc1 (stereo unspecified)	inactive: -3.11%
CCC(=O)N1C2C3N(C(=O)CC)C1C1N(C(=O)CC)C(C(N1C(=O)CC)N3C(=O)CC)N2C(=O)CC	inactive: -3.63%
CC(NC(=O)COC(=O)C(O)(c1ccccc1)c1ccccc1)c1ccccc1 (stereo unspecified)	inactive: -6.98%
Cc1ccccc1OP(=O)(Nc1ccccn1)Oc1ccccc1C	inactive: -18.1%
O=c1c2cc([N+](=O)[O-])ccc2[nH]c2c([N+](=O)[O-])cc([N+](=O)[O-])cc12	inactive: 12.7%
CN(C)C(=O)Oc1noc2ccccc12	inactive: -1.05%

SMILES	inhibition
COc1ccc(N)c([N+](=O)[O-])c1[N+](=O)[O-]	inactive: -8.6%
Nc1ccc(CCCCOc2ccccc2)cc1	inactive: -3.56%
O=P(Nc1ccccn1)(c1ccc(Br)cc1)c1ccc(Br)cc1	inactive: 8.03%
CN(C)C1(CNC(=O)c2ccc(Cl)c(S(N)(=O)=O)c2)CCCCC1	inactive: 4.8%
O=P(Nc1nc2ccccc2s1)(c1ccccc1)c1ccccc1	inactive: 13%
C[C@H]1OP(=O)(Oc2ccccc2)[C@H](O)[C@H](O)[C@H]1N=[N+]=[N-] (stereo partly specified)	inactive: 15.7%
O=[N+]([O-])c1ncn(CCn2cnc([N+](=O)[O-])n2)n1	inactive: 12%
CC(=O)NC(SC(=S)N(C)C)C(Cl)(Cl)Cl (stereo unspecified)	inactive: 5.53%
O=[As](O)(c1ccccc1)c1ccc(O)cc1	inactive: -6.36%
C/C(N)=N\P(=O)(OCc1ccccc1)OCc1ccccc1	inactive: -1.25%
C(Cc1nn[nH]n1)Cc1nn[nH]n1	inactive: 5.12%
Nc1ccc([As](=O)(O)c2ccc([N+](=O)[O-])cc2)cc1	inactive: 10.7%
O=C(OC1CN2CCC1CC2)c1cccc(Cl)c1 (stereo unspecified)	inactive: -5.21%
CC(C)C(=O)NC(Sc1ccccc1)C(Cl)(Cl)Cl (stereo unspecified)	inactive: 10.2%
O=P(Nc1nccs1)(c1ccccc1)c1ccccc1	inactive: 6.67%
c1nnnn1CCn1cnnn1	inactive: -2.96%
COc1ccc(C2=NCC(CBr)S2)cc1 (stereo unspecified)	inactive: 16%
O=[N+]([O-])c1cccc2n[nH]nc12	inactive: -7.28%
CC(=O)N1C2C3N(C(C)=O)C1C1N(C(C)=O)C(C(N1C(C)=O)N3C(C)=O)N2C(C)=O	inactive: -0.98%
Cc1ccc(NP(=O)(Oc2ccccc2)Oc2ccccc2)nc1	inactive: -20.1%
CCc1nc2c(n1)c1c(non1O)c1c2no[n+]1[O-]	inactive: -2.06%
O=[N+]([O-])c1cc([N+](=O)[O-])c(CCNc2ccccc2)c([N+](=O)[O-])c1	inactive: -5.06%
Nc1ccc([As](=O)(O)c2ccc(N)cc2)cc1	inactive: -2.4%
C[N+]1=C2C=CC=CC=C2SC12C([N+](=O)[O-])=CC([N+](=O)[O-])=C[C-]2[N+](=O)[O-] (stereo unspecified)	inactive: 20.5%
CCN(/C(=N/P(=O)(N1CCOCC1)N1CCOCC1)N1CCOCC1)c1ccc(OC)cc1	inactive: 5.53%
